## Measured affinities in a library of Ab-14 heavy chain variants

Target peptide (SARS-CoV-2 spike, HR2 region): PDVDLGDISGINAS

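The library (AAYL49) carries one to three amino acid substitutions per variant, with no insertions or deletions. AlphaSeq pools MATa yeast showing the antibodies with MATalpha yeast showing the peptide. Binding brings cells together so that they mate, and sequencing counts the barcode pairs among the diploids. The ratio of observed to expected reads was calibrated, replicate by replicate, on BCL2-family standards whose Kd was known from biolayer interferometry. Each pool was mated in three replicate cultures.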

Parent scFv Ab-14: VH joined to VL by a (GGGGS)3 linker. Changes lie in the heavy chain CDRs alone.
VH: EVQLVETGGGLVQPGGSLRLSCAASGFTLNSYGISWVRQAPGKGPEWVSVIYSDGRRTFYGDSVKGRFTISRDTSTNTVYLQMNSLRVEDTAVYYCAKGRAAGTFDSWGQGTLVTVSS
VL: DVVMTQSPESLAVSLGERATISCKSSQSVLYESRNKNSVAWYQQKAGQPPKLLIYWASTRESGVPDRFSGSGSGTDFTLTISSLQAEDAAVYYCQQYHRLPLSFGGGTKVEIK

Each variant's VH is given in full.
Affinities are written as log10 Kd with Kd in nM; a lower number is a better binder.
"nd" means that the variant was in the library but no mating with the target was seen in that replicate; the authors take this as a sign of poor binding, and no number exists.
Empty control strains, which show no peptide, gave a signal in 15% of pairings with library AAYL49; the median was 4.06 and 95% of these signals were weaker than 2.83. No background was subtracted. Also given: how often the same scFv was detected with the empty control strains, with their mean in brackets.
In this assay the parent's reference entry averaged 0.65; its copy inside this library read 4.11 (one replicate of three).

VH | log10 Kd, replicates | empty controls
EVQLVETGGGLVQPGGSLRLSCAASGFTLVSYGISWVRQAPGKGPEWVSVIYSDGRRTFYGDSVKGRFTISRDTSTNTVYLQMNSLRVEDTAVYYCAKGRMAGEFDSWGQGTLVTVSS | nd nd nd | 2 of 9 (3.83)
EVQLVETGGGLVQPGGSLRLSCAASGFQLNSYGISWVRQAPGKGPEWVSVEYSDGRRTFYGDSVKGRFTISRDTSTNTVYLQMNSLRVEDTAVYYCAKGRAAGTFLSWGQGTLVTVSS | nd nd nd | 0 of 9
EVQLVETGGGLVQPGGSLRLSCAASGFTLNSQGSSWVRQAPGKGPEWVSVIYSRGRRTFYGDSVKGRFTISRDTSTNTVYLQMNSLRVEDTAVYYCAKGRAAGTFDSWGQGTLVTVSS | nd 3.86 nd | 0 of 9
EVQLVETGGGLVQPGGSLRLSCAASAFTLNSYGISWVRQAPGKGPEWVSVIYSDGRRTFYGDSVSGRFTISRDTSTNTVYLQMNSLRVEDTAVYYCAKGRAAGTFDEWGQGTLVTVSS | 2.24 1.90 2.40 | 3 of 9 (3.80)
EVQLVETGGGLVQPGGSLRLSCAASGFTLNSYGISWVRQAPGKGPEWVSVISSDGRVTFYGSSVKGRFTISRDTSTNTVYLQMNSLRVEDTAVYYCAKGRAAGTFDSWGQGTLVTVSS | nd 4.40 6.30 | 8 of 9 (5.21)
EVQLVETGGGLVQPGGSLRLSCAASGFTLNSYGISWVRQAPGKGPEWVSVIYSDGRWTFYGDSVKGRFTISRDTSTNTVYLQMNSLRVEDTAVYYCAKGRAQITFDSWGQGTLVTVSS | nd nd 4.27 | 2 of 9 (3.74)
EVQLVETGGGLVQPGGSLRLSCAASGFTLNSYGISWVRQAPGKGPEWVSEIYSDGRRCFYGLSVKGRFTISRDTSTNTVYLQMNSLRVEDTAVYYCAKGRAAGTFDSWGQGTLVTVSS | nd 4.29 nd | 3 of 9 (3.40)
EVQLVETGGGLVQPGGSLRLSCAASTFTLYSYGDSWVRQAPGKGPEWVSVIYSDGRRTFYGDSVKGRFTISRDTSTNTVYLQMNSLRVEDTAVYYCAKGRAAGTFDSWGQGTLVTVSS | nd nd nd | 0 of 9
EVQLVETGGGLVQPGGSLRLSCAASGFTLNSYGINWVRQAPGKGPEWVSVIYSDGRRTFYGDSVKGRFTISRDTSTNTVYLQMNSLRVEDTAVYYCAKGRAAGTFDSWGQGTLVTVSS | 3.24 2.71 2.94 | 3 of 9 (3.78)
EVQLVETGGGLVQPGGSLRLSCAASGRTLNSYGISWVRQAPGKGPEWVSVIYSDGRASFYGDSVKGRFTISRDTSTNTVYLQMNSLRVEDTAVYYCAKGRAAGTFDSWGQGTLVTVSS | nd nd nd | 3 of 9 (3.67)
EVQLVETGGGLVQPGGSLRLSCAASGFTLNSYGWSWVRQAPGKGPEWVSVIYSDGPRTFYGDSVKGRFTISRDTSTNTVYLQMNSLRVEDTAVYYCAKGRNAGTFDSWGQGTLVTVSS | nd nd nd | 0 of 9
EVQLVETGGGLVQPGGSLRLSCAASGFTLNSYNISWVRQAPGKGPEWVSVIYSDGWRTFYGESVKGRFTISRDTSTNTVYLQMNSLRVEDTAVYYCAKGRAAGTFDSWGQGTLVTVSS | nd nd 5.92 | 3 of 9 (4.35)
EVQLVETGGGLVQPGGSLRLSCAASTFTLNSYGISWVRQAPGKGPEWVSVIYSDGRRTFYPDSVKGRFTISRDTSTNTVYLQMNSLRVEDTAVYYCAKGRTAGTFDSWGQGTLVTVSS | nd nd nd | 2 of 9 (3.35)
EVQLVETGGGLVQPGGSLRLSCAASGFTLSSYGICWVRQAPGKGPEWVSVIYSDGRRTFYGDSVKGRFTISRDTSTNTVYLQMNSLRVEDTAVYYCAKGRAAGTFASWGQGTLVTVSS | nd nd nd | 0 of 9
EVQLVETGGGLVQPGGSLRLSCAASGFTLNSYGISWVRQAPGKGPEWVSVIYSDGRRTFYGDSVKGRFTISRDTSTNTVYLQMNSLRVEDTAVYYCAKGRAAGTFTSWGQGTLVTVSS | 1.32 1.28 1.25 | 0 of 9

Extract of 2 entries:

VH	log10 Kd, replicates	empty controls
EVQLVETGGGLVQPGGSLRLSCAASAFTLNSYGISWVRQAPGKGPEWVSVIYSDGRRTFYGDSVSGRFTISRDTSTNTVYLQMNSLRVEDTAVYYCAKGRAAGTFDEWGQGTLVTVSS	2.24 1.90 2.40	3 of 9 (3.80)
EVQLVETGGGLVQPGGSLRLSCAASGFTLSSYGICWVRQAPGKGPEWVSVIYSDGRRTFYGDSVKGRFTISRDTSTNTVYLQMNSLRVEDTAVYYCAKGRAAGTFASWGQGTLVTVSS	nd nd nd	0 of 9

Source: Engelhart et al. 2022 (doi:10.1038/s41597-022-01779-4), MIT Lincoln Laboratory and A-Alpha Bio; data file from the FLAb repository.